Data taken from patent US20260382588A1, “COMPOUNDS CONTAINING A HYDROXYPHENYL MOIETY AND THEIR USE” (published 2026).
Where two headings read alike, the source gives them in different places.

By UniProt entry, the sequences of proteins in these tests, tags left out. Residues count along the entry.
UniProt O75460, 465-977 limits assumed: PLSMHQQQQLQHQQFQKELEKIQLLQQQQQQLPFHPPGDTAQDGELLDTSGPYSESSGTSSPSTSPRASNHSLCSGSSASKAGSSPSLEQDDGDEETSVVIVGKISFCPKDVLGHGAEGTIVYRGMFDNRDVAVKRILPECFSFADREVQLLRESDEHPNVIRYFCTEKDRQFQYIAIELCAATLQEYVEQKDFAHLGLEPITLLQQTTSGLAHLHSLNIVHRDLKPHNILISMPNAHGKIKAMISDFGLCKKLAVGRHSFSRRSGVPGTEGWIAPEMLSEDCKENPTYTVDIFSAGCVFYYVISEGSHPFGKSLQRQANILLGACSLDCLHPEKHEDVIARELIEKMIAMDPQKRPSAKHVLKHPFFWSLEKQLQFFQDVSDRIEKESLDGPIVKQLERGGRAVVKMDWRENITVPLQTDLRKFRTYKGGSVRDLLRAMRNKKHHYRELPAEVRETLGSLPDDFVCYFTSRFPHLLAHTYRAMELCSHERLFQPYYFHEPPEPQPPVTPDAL

How the values were obtained:
[1] = target: IRE1 (Homo sapiens, UniProt O75460); assay: IRE1-mediated in vitro RNase assay (FRET-quenched mini Xbp1 RNA probe)
Excerpt: Materials—IRE1 wild-type recombinant protein encoding the cytoplasmic domain (amino acids 465-977) with N-terminal polyhistidine-tag and GST tag was from Sinobiological (Sino Biological Europe GmbH, Eschborn, Germany, #11905-H20B). The fluorescent probe used for the in vitro IRE1 RNase assay was from Eurogentec. Tunicamycin was purchased from Calbiochem (Merck KGaA, Darmstadt, Germany). All the inhibitors were synthesized by and purchased from Enamine (Riga, Latvia).
IRE1-mediated in vitro RNase assay—Organic molecules (Compounds 28 (Z4P), and 33 (Z4), 34 (Z4A), 35 (Z4B), 36 (Z4C), 37 (Z4D) and 38 (Z4E)) were diluted in minimal volume of DMSO and subsequently re-diluted in reaction buffer (20 mM HEPES pH 7.5; 1 mM MgOAc; 50 mM KOAc). Maximum volume of DMSO per reaction never exceeded 1%. Reaction volume was 25 μL. Recombinant IRE1 (0.6 μg/reaction) was incubated at room temperature for 10 minutes with varying concentrations (0-100 μM) of inhibitor and reaction buffer. The assay relied on the use of fluorescence resonance energy transfer (FRET)—quenched mini Xbp1 RNA substrate probe, which when cleaved by IRE1 emits fluorescence at 590 nm (cy3) wavelength (F. Prischi et al., Nature Communications, 2014, 5, 3554). Subsequently equal volume of mixture of reaction buffer, 20 mM ATP, 2 mM DTT and 1 μg of fluorescent probe were added to each sample and fluorescence was read in 96 well plates flat bottom, black polystyrene, matrix active group High Bind (Corning®) every minute for 25 minutes, at 37 °C, using a Tecan 200 plate reader.

[2] = tested on: U87 cells; assay: TMZ sensitivity (cell viability, WST1) assay in U87 cells; details: for TMZ toxicity in U87 cells: increasing concentrations of compound upon TMZ treatment (FIG. 3); for sensitization of cells to TMZ: sub-toxic dose of compound plus escalating TMZ, 6 days (FIGS. 2D and 3)
Experimental: Cell culture and treatments—U87MG (U87; ATCC) cells were authenticated as recommended by AACR (http://aacrjoumals.org/content/cell-line-authentication-information) and regularly tested for the absence of mycoplasma using MycoAlert® (Lonza, Basel, Switzerland) or MycoFluor (Invitrogen, Carlsbad, CA, USA). U87 were grown in DMEM Glutamax (Invitrogen, Carlsbad, CA, USA) supplemented with 10% FBS. GB immortalized U251 and primary RADH87 (T. Avril et al., Brain Pathol., 2012, 22, 159-174) cells were grown in DMEM supplemented with 10% FBS in a 5% C02 humidified atmosphere at 37 °C. GB cell lines were modified for IRE1 activity by overexpressing dominant negative (DN) forms of IRE1 that lack the RNase domain (IRE1.NCK or IRE1 Q780stop) as previously described (S. Lhomond et al., EMBO Molecular Medicine, 2018, 10, e7929; J. Obacz et al., bioRxiv, 2020, 533018). For XBP1s induction experiments, tunicamycin was used at 1 μg/mL for the indicated periods of time. For inhibitor cell toxicity assays cells were plated in 96 well plates at 5000 cells per well and treated with 0, 5, 10, 25, 50, 100, 250, 500, 1000 and 2500 μM concentrations of each inhibitor. After 6 days of incubation, WST1 reagent (Roche) was added to each well and post 2-hour incubation the plate was read using a Tecan 200 colorimeter. For TMZ sensitivity assays cells were plated in a 96 well plate at 5000 cells per well and co-treated with 0, 5, 10, 25, 50, 100, 250, 500, 1000 and 2500 μM of TMZ plus a non-toxic dose of inhibitor. After 6 days of incubation, WST1 reagent (Roche) was added to each well and post 2-hour incubation the plate was read using a Tecan 200 colorimeter.
The effect of compounds 28 (Z4P) and 33 (Z4) on RIDD was then tested by interrogating the levels of the known RIDD target Sparc mRNA (46) in U87 cells upon treatment with the transcriptional blocker actinomycin D and the ER stressor tunicamycin. Both compound 33 (Z4) and 28 (Z4P) blocked tunicamycin-induced degradation of Sparc mRNA compared to control treatment (FIG. 2C) whilst had no effect on Sparc mRNA in cells overexpressing a dominant negative (DN) form of IRE1 (data not shown). The specificity of these compounds in the context of the other arms of the UPR, PERK in particular, was then investigated. This was done to ensure that the stress responses related to compounds 28 (Z4P) and 33 (Z4) were wholly due to their action on IRE1 rather than other UPR transducers. The expression of downstream effectors of PERK and ATF6 was evaluated. […] This was also confirmed at the level of eIF2α phosphorylation and ATF4 protein expression which were not altered upon exposure to compound 33 (Z4) (data not shown). […] Consequently, to further document the characteristics of compound 33 (Z4) at the protein level, U251 (commonly available GB cell line) and RADH87 (G. Auf et al., Proc Natl Acad Sci USA, 2010, 107, 15553-15558) (human tumor-derived primary GB cell line) cells were treated and their proteome were evaluated. Treatment of U251 and RADH87 cells with compound 33 (Z4) impacted on particular pathways such as cell adhesion, circulatory system development, cell locomotion and cell migration; all properties involved in tumor establishment (e.g. angiogenesis) and tumor invasion (e.g. metastasis) (data not shown). The proteomes of these GB lines exposed to compound 33 (Z4) was then functionally compared to those of the same cell lines in which IRE1 activity was invalidated genetically either using a dominant negative construct reported previously (B. Drogat, et al., Cancer Res., 2007, 67, 6700-6707) or a truncated mutant variant of IRE1 lacking an RNase domain (Q780stop) (S. Lhomond, et al., EMBO Molecular Medicine, 2018, 10, e7929) (data not shown). […] Proteome alterations upon compound 33 (Z4) exposure phenocopied those observed in cells in which IRE1 activity was genetically blunted, thus reinforcing the selectivity of compound 33 (Z4) towards IRE1 (data not shown). […]

[3] = FRET-quenched IRE1 RNA substrate probe, FIG. 1, result in words

| Compound | IC50 [1, 3] | TMZ toxicity in U87 cells [2] | sensitization of cells to TMZ [2] | IC50 ([1]; read-out: IC50 (RNase), Table 5) |
| --- | --- | --- | --- | --- |
| CCNC(=O)c1ccc(C)c(NC(=O)NC(C)CCc2ccc(O)cc2)c1 (stereo not shown) | low micromolar range | enhancement of TMZ toxicity |  |  |
| CC(CCc1ccc(O)cc1)NC(=O)C(=O)Nc1cc(C(N)=O)ccc1F (stereo not shown) | low micromolar range | enhancement of TMZ toxicity |  |  |
| Cc1ccc(C(N)=O)cc1NC(=O)NC(C)CCc1ccc(O)cc1 (racemic) | low micromolar range |  | about 1.5 fold |  |
| Cc1ccc(C(=O)NC2CC2)cc1NC(=O)NC(C)CCc1ccc(O)cc1 (stereo not shown) | low micromolar range | enhancement of TMZ toxicity |  |  |
| CNC(=O)c1ccc(C)c(NC(=O)NC(C)CCc2ccc(O)cc2)c1 (stereo not shown) | low micromolar range | enhancement of TMZ toxicity |  |  |
| CC(CCc1ccc(O)cc1)NC(=O)Nc1cc(C(N)=O)ccc1F (stereo not shown) | low micromolar range | enhancement of TMZ toxicity |  |  |
| Cc1ccc(C)c(NC(=O)NC(C)CCc2ccc(O)cc2)c1 (racemic) | low micromolar range | enhancement of TMZ toxicity | about 1.5 fold | 1.09 µM |
